## CycPeptMPDB entries from one study

Collected by the curators of CycPeptMPDB (Li et al. 2023) from Townsend et al. 2020, doi:10.26434/chemrxiv.13335941.v1.

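Lipid, pH, incubation time, direction and concentration are not recorded in the data file. The list need not hold all peptides of the study. Peptides that the database sets to -10, its floor, are left out.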

PAMPA measures passive passage through an artificial lipid membrane.
Permeability is in 10^-6 cm/s, converted from the database's log10 values; higher is more permeable.

For CC(C)C[C@@H]1C(=O)N[C@@H](Cc2ccccc2)C(=O)N2CCC[C@@H]2C(=O)N[C@@H](C)C(=O)N[C@H](CC(C)C)C(=O)N(C)[C@@H](CC(C)C)C(=O)N2CCC[C@@H]2C(=O)N1C the data give PAMPA 1.9 × 10^-6 cm/s.
For CC(C)C[C@@H]1C(=O)N[C@@H](Cc2ccccc2)C(=O)N2CCC[C@@H]2C(=O)N[C@H](C)C(=O)N(C)[C@H](CC(C)C)C(=O)N(C)[C@@H](CC(C)C)C(=O)N2CCC[C@@H]2C(=O)N1C the data give PAMPA 9.8 × 10^-6 cm/s.
For CC(C)C[C@@H]1C(=O)N[C@H](CC(C)C)C(=O)N2CCC[C@H]2C(=O)N(C)[C@H](CC(C)C)C(=O)N[C@@H](Cc2ccccc2)C(=O)N[C@@H](Cc2ccccc2)CC(=O)N1C the data give PAMPA 7.8 × 10^-6 cm/s.
For CCCN1CC(=O)N[C@@H](CC(C)C)C(=O)N(C)[C@H](CC(C)C)C(=O)N2CCC[C@H]2C(=O)N(C)[C@@H](CC(C)C)C(=O)N[C@@H](Cc2ccccc2)C(=O)N2CCC[C@@H]2C1=O the data give PAMPA 7.6 × 10^-6 cm/s.
For CC(C)C[C@@H]1C(=O)N[C@@H](Cc2ccccc2)C(=O)N[C@@H](C)C(=O)N(C)[C@@H](CC(C)C)C(=O)N(Cc2ccccc2)CC(=O)N2CCC[C@H]2C(=O)N1C the data give PAMPA 6.3 × 10^-6 cm/s.
For CC(C)C[C@@H]1NC(=O)[C@@H](C)N(C)C(=O)[C@H](Cc2ccccc2)NC(=O)[C@@H](CC(C)C)NC(=O)[C@@H]2CCCN2C(=O)[C@@H](CC(C)C)N(C)C1=O the data give PAMPA 7.2 × 10^-6 cm/s.
For CC(C)C[C@@H]1NC(=O)[C@@H](C)N(C)C(=O)[C@H](Cc2ccccc2)NC(=O)[C@@H](CC(C)C)N(C)C(=O)[C@H]2CCCN2C(=O)CN(Cc2ccccc2)C1=O the data give PAMPA 6.2 × 10^-6 cm/s.
For CC(C)C[C@@H]1NC(=O)[C@@H]2CCCN2C(=O)C[C@H](Cc2ccccc2)NC(=O)[C@@H](CC(C)C)N(C)C(=O)[C@@H](C)NC(=O)[C@H]2CCCN2C(=O)[C@H](Cc2ccccc2)NC1=O the data give PAMPA 0.56 × 10^-6 cm/s.
For CC(C)C[C@@H]1C(=O)N2CCC[C@H]2C(=O)N(C)[C@H](CC(C)C)C(=O)N[C@@H](Cc2ccccc2)C(=O)N2CCC[C@@H]2C(=O)N(C)[C@@H](C)C(=O)N(C)[C@@H](CC(C)C)C(=O)N1C the data give PAMPA 1.4 × 10^-6 cm/s.
For CC(C)C[C@@H]1C(=O)N2CCC[C@@H]2C(=O)N(C)[C@@H](CC(C)C)C(=O)N[C@@H](Cc2ccccc2)C(=O)N2CCC[C@@H]2C(=O)N[C@@H](C)C(=O)N[C@H](CC(C)C)C(=O)N1C the data give PAMPA 1.8 × 10^-6 cm/s.
For CC(C)C[C@@H]1NC(=O)[C@H](C)NC(=O)[C@@H]2CCCN2C(=O)[C@H](Cc2ccccc2)NC(=O)[C@H](CC(C)C)NC(=O)[C@@H]2CCCN2C(=O)[C@H](CC(C)C)NC1=O the data give PAMPA 0.055 × 10^-6 cm/s.
For CCCN1CC(=O)N[C@@H](CC(C)C)C(=O)N(C)[C@@H](CC(C)C)C(=O)N2CCC[C@H]2C(=O)N[C@@H](CC(C)C)C(=O)N[C@@H](Cc2ccccc2)C(=O)N2CCC[C@@H]2C1=O the data give PAMPA 4.7 × 10^-6 cm/s.
For CC(C)C[C@H]1C(=O)N[C@@H](Cc2ccccc2)CC(=O)N2CCC[C@H]2C(=O)N(Cc2ccccc2)CC(=O)N[C@@H](Cc2ccccc2)C(=O)N2CCC[C@@H]2C(=O)N(C)[C@H](C)C(=O)N1C the data give PAMPA 0.55 × 10^-6 cm/s.
For CC(C)C[C@@H]1C(=O)N(Cc2ccccc2)CC(=O)N2CCC[C@@H]2C(=O)N[C@H](CC(C)C)C(=O)N[C@@H](Cc2ccccc2)C(=O)N2CCC[C@H]2C(=O)N(C)[C@H](C)C(=O)N1C the data give PAMPA 2.9 × 10^-6 cm/s.
For CCCN1CC(=O)N[C@H](CC(C)C)C(=O)N(C)[C@@H](CC(C)C)C(=O)N2CCC[C@H]2C(=O)N(C)[C@@H](CC(C)C)C(=O)N[C@@H](Cc2ccccc2)C(=O)N2CCC[C@H]2C1=O the data give PAMPA 6.3 × 10^-6 cm/s.
For CC(C)C[C@@H]1NC(=O)CN(Cc2ccccc2)C(=O)C[C@H](Cc2ccccc2)NC(=O)[C@H]2CCCN2C(=O)[C@H](Cc2ccccc2)NC(=O)[C@@H](CC(C)C)NC(=O)[C@@H]2CCCN2C1=O the data give PAMPA 1.6 × 10^-6 cm/s.
For CC(C)C[C@@H]1C(=O)N[C@@H](Cc2ccccc2)C(=O)N2CCC[C@H]2C(=O)N(C)[C@H](C)C(=O)N(C)[C@@H](CC(C)C)C(=O)N(C)[C@H](CC(C)C)C(=O)N2CCC[C@@H]2C(=O)N1C the data give PAMPA 3.2 × 10^-6 cm/s.

Extract of 2 entries:

structure (SMILES)	PAMPA (10^-6 cm/s)
CC(C)C[C@@H]1C(=O)N[C@@H](Cc2ccccc2)C(=O)N[C@@H](C)C(=O)N(C)[C@@H](CC(C)C)C(=O)N(Cc2ccccc2)CC(=O)N2CCC[C@H]2C(=O)N1C	6.3
CC(C)C[C@@H]1C(=O)N(Cc2ccccc2)CC(=O)N2CCC[C@@H]2C(=O)N[C@H](CC(C)C)C(=O)N[C@@H](Cc2ccccc2)C(=O)N2CCC[C@H]2C(=O)N(C)[C@H](C)C(=O)N1C	2.9